Laboratory results reported in article PMC4588578, “Targeting substrate-site in Jak2 kinase prevents emergence of genetic resistance” (Scientific Reports, 2015).

Tested on: purified kinase domains having ruxolitinib resistant mutations

Cc1cnc(Nc2ccc(OCCN3CCCC3)cc2)nc1Nc1cccc(S(=O)(=O)NC(C)(C)C)c1 [fedratinib]
resistance of purified kinase domains having ruxolitinib resistant mutations: but not to fedratinib
